US7683063B2

By UniProt entry, the sequences of proteins in these tests, tags left out.
UniProt Q8NER1, whole entry: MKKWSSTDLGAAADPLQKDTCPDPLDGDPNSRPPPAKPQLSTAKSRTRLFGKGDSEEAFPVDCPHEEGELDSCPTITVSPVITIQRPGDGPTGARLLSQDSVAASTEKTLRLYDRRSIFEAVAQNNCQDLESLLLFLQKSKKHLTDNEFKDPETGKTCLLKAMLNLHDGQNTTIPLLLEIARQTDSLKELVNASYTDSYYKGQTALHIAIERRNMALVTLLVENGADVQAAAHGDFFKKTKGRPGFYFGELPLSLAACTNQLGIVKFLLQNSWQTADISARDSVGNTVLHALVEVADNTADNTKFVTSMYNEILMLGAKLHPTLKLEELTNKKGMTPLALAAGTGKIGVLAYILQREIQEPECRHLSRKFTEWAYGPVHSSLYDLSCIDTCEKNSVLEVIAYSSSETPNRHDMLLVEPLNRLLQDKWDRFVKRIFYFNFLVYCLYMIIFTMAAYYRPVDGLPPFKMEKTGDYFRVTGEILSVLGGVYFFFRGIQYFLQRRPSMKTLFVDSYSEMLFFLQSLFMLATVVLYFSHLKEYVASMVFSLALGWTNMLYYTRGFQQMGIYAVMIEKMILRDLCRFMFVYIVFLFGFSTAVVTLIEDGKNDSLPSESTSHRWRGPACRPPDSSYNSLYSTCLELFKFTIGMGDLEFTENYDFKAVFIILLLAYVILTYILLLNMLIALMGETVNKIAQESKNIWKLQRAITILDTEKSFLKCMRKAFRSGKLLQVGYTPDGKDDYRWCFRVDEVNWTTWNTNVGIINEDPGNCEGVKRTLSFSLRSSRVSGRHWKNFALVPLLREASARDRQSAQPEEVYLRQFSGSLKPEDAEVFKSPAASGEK

Columns and labels:
[1] = target: T1, human VR1 (Homo sapiens, UniProt Q8NER1); assay: Capsaicin-based assay, calcium influx in VR1-expressing cells (FLIPR); details: HEK293-EcR cells induced with 5 μM PonA to express human VR1; Fluo-4; activation by 50 μL of capsaicin (400 nM); compound about 50 pM to about 3 μM
Protocol: (§1) Human VR1 cloning. Human spinal cord RNA (commercially available from Clontech, Palo Alto, Calif.) was used. Reverse transcription was conducted on 1.0 μg total RNA using Thermoscript Reverse Transcriptase (commercially available from Invitrogen, Carlsbad, Calif.) and oligo dT primers as detailed in its product description. Reverse transcription reactions were incubated at 55° C. for 1 h, heat-inactivated at 85° C. for 5 min, and RNase H-treated at 37° C. for 20 min.
(§2) Human VR1 cDNA sequence was obtained by comparison of the human genomic sequence, prior to annotation, to the published rat sequence. Intron sequences were removed and flanking exonic sequences were joined to generate the hypothetical human cDNA. Primers flanking the coding region of human VR1 were designed as follows: forward primer, […]; and reverse primer, […].
(§3) PCR of VR1 was performed on one tenth of the Reverse transcription reaction mixture using Expand Long Template Polymerase and Expand Buffer 2 in a final volume of 50 μL according to the manufacturer's instructions (Roche Applied Sciences, Indianapolis, Ind.). […]
(§4) Generation of inducible cell lines. […] On the day of assay, cells were loaded with Fluo-4 (a calcium-sensitive dye that is commercially available from Molecular Probes, Eugene, Oreg.) and CAP-mediated calcium influx was measured using a FLIPR as described below. […]

[2] = target: T1, human VR1; assay: pH-based assay, calcium influx in VR1-expressing cells (FLIPR); details: HEK293-EcR cells induced with 5 μM PonA to express human VR1; Fluo-4; activation by agonist buffer giving pH 5.5; compound about 50 pM to about 3 μM
Protocol: as §1, §2, §3, §4

Compound: Cc1cccnc1N1CC=C(C(=O)Nc2ccc(C(C)C)cc2)CC1
- IC50 [1]: 4.4 nM
- IC50 [2]: 148 nM
